# Membrane permeability of cyclic peptides

Collected by the curators of CycPeptMPDB (Li et al. 2023) from Kelly et al. 2021, doi:10.1021/jacs.0c06115.

PAMPA is the parallel artificial membrane permeability assay, which has no cells and reads passive diffusion.
Permeability is given as log10 of P in cm/s; higher (less negative) is more permeable.

SMILES	PAMPA (log10 cm/s)
CC(=O)N1CCC[C@@H]1C(=O)N(C)[C@@H](CC(C)C)C(=O)N[C@@H]1C(=O)N(C)[C@H](CC(C)C)C(=O)N[C@@H](CC(C)C)C(=O)N(C)[C@@H](CC(C)C)C(=O)N(C)[C@@H](C)C(=O)N[C@@H](CC(C)C)C(=O)N2CCC[C@H]2C(=O)O[C@@H]1C	-5.35
CC(=O)N1CCC[C@@H]1C(=O)N(C)[C@H](CC(C)C)C(=O)N[C@@H]1C(=O)N[C@@H](CC(C)C)C(=O)N(C)[C@@H](CC(C)C)C(=O)N(C)[C@@H](CC(C)C)C(=O)N[C@@H](C)C(=O)N[C@@H](CC(C)C)C(=O)N2CCC[C@H]2C(=O)O[C@@H]1C	-6.97
CC(=O)N1CCC[C@@H]1C(=O)N(C)[C@@H](CC(C)C)C(=O)N[C@@H]1C(=O)N(C)[C@H](CC(C)C)C(=O)N(C)[C@H](CC(C)C)C(=O)N[C@H](CC(C)C)C(=O)N(C)[C@H](C)C(=O)N[C@H](CC(C)C)C(=O)N2CCC[C@@H]2C(=O)O[C@@H]1C	-5.66
CC(=O)N1CCC[C@H]1C(=O)N(C)[C@H](CC(C)C)C(=O)N[C@@H]1C(=O)N[C@H](CC(C)C)C(=O)N[C@H](CC(C)C)C(=O)N[C@@H](CC(C)C)C(=O)N[C@@H](C)C(=O)N[C@@H](CC(C)C)C(=O)N2CCC[C@H]2C(=O)O[C@@H]1C	-6.79
CC(=O)N1CCC[C@H]1C(=O)N[C@@H]1C(=O)N[C@H](CC(C)C)C(=O)N[C@H](CC(C)C)C(=O)N[C@H](CC(C)C)C(=O)N(C)[C@H](CC(C)C)C(=O)N[C@H](C)C(=O)N[C@@H](CC(C)C)C(=O)N2CCC[C@@H]2C(=O)O[C@@H]1C	-5.75
CC(=O)N1CCC[C@@H]1C(=O)N(C)[C@@H](CC(C)C)C(=O)N[C@@H]1C(=O)N(C)[C@H](CC(C)C)C(=O)N[C@H](CC(C)C)C(=O)N(C)[C@H](CC(C)C)C(=O)N[C@H](C)C(=O)N[C@@H](CC(C)C)C(=O)N2CCC[C@H]2C(=O)O[C@@H]1C	-6.00
CC(=O)N1CCC[C@H]1C(=O)N(C)[C@@H](CC(C)C)C(=O)N[C@@H]1C(=O)N[C@H](CC(C)C)C(=O)N(C)[C@@H](CC(C)C)C(=O)N(C)[C@H](CC(C)C)C(=O)N(C)[C@@H](C)C(=O)N[C@@H](CC(C)C)C(=O)N2CCC[C@H]2C(=O)O[C@@H]1C	-5.34
CC(=O)N1CCC[C@@H]1C(=O)N(C)[C@@H](CC(C)C)C(=O)N[C@@H]1C(=O)N(C)[C@H](CC(C)C)C(=O)N(C)[C@@H](CC(C)C)C(=O)N(C)[C@H](CC(C)C)C(=O)N(C)[C@@H](C)C(=O)N[C@H](CC(C)C)C(=O)N2CCC[C@H]2C(=O)O[C@@H]1C	-5.35
CC(=O)N1CCC[C@H]1C(=O)N(C)[C@@H](CC(C)C)C(=O)N[C@@H]1C(=O)N[C@@H](CC(C)C)C(=O)N(C)[C@H](CC(C)C)C(=O)N(C)[C@H](CC(C)C)C(=O)N[C@H](C)C(=O)N[C@H](CC(C)C)C(=O)N2CCC[C@@H]2C(=O)O[C@@H]1C	-6.85
CC(=O)N1CCC[C@H]1C(=O)N(C)[C@@H](CC(C)C)C(=O)N[C@@H]1C(=O)N(C)[C@@H](CC(C)C)C(=O)N(C)[C@@H](CC(C)C)C(=O)N(C)[C@H](CC(C)C)C(=O)N(C)[C@H](C)C(=O)N[C@@H](CC(C)C)C(=O)N2CCC[C@@H]2C(=O)O[C@@H]1C	-5.50
CC(=O)N1CCC[C@H]1C(=O)N(C)[C@H](CC(C)C)C(=O)N[C@@H]1C(=O)N[C@@H](CC(C)C)C(=O)N[C@@H](CC(C)C)C(=O)N[C@H](CC(C)C)C(=O)N[C@H](C)C(=O)N[C@@H](CC(C)C)C(=O)N2CCC[C@H]2C(=O)O[C@@H]1C	-6.31
CC(=O)N1CCC[C@H]1C(=O)N(C)[C@@H](CC(C)C)C(=O)N[C@@H]1C(=O)N[C@@H](CC(C)C)C(=O)N(C)[C@@H](CC(C)C)C(=O)N(C)[C@H](CC(C)C)C(=O)N(C)[C@H](C)C(=O)N[C@@H](CC(C)C)C(=O)N2CCC[C@@H]2C(=O)O[C@@H]1C	-5.30

A selection of 2 entries from above:

SMILES	PAMPA (log10 cm/s)
CC(=O)N1CCC[C@H]1C(=O)N[C@@H]1C(=O)N[C@H](CC(C)C)C(=O)N[C@H](CC(C)C)C(=O)N[C@H](CC(C)C)C(=O)N(C)[C@H](CC(C)C)C(=O)N[C@H](C)C(=O)N[C@@H](CC(C)C)C(=O)N2CCC[C@@H]2C(=O)O[C@@H]1C	-5.75
CC(=O)N1CCC[C@@H]1C(=O)N(C)[C@H](CC(C)C)C(=O)N[C@@H]1C(=O)N[C@@H](CC(C)C)C(=O)N(C)[C@@H](CC(C)C)C(=O)N(C)[C@@H](CC(C)C)C(=O)N[C@@H](C)C(=O)N[C@@H](CC(C)C)C(=O)N2CCC[C@H]2C(=O)O[C@@H]1C	-6.97

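The data file gives no further conditions (lipid, pH, time, direction or concentration), and values from different papers need not be comparable. The list need not hold all peptides of the study. Peptides that the database sets to -10, its floor, are left out.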